Source: ChEMBL document CHEMBL1145498, “A systematic interaction map of validated kinase inhibitors with Ser/Thr kinases” (Proc Natl Acad Sci U S A, 2007)

Amino acid sequences for entries named in this document (tags omitted). A change or cut given only in a name is not applied to a line headed by its entry. Chains listed by the source or under a name are the forms on record and can include a tag or linker.
UniProt P49840: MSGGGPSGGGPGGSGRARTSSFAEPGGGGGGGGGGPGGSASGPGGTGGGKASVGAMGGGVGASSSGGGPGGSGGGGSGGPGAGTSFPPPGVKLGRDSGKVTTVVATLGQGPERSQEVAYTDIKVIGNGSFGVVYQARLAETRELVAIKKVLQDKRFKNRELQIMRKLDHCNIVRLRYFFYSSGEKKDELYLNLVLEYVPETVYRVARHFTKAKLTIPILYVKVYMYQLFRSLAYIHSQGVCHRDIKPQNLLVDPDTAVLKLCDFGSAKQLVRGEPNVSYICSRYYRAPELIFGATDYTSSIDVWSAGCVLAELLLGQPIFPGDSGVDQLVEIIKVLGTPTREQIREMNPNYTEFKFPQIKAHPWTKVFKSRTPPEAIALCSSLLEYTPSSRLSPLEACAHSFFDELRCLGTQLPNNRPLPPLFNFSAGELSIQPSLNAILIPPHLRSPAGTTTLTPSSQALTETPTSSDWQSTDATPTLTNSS
UniProt P13569, as listed by the source: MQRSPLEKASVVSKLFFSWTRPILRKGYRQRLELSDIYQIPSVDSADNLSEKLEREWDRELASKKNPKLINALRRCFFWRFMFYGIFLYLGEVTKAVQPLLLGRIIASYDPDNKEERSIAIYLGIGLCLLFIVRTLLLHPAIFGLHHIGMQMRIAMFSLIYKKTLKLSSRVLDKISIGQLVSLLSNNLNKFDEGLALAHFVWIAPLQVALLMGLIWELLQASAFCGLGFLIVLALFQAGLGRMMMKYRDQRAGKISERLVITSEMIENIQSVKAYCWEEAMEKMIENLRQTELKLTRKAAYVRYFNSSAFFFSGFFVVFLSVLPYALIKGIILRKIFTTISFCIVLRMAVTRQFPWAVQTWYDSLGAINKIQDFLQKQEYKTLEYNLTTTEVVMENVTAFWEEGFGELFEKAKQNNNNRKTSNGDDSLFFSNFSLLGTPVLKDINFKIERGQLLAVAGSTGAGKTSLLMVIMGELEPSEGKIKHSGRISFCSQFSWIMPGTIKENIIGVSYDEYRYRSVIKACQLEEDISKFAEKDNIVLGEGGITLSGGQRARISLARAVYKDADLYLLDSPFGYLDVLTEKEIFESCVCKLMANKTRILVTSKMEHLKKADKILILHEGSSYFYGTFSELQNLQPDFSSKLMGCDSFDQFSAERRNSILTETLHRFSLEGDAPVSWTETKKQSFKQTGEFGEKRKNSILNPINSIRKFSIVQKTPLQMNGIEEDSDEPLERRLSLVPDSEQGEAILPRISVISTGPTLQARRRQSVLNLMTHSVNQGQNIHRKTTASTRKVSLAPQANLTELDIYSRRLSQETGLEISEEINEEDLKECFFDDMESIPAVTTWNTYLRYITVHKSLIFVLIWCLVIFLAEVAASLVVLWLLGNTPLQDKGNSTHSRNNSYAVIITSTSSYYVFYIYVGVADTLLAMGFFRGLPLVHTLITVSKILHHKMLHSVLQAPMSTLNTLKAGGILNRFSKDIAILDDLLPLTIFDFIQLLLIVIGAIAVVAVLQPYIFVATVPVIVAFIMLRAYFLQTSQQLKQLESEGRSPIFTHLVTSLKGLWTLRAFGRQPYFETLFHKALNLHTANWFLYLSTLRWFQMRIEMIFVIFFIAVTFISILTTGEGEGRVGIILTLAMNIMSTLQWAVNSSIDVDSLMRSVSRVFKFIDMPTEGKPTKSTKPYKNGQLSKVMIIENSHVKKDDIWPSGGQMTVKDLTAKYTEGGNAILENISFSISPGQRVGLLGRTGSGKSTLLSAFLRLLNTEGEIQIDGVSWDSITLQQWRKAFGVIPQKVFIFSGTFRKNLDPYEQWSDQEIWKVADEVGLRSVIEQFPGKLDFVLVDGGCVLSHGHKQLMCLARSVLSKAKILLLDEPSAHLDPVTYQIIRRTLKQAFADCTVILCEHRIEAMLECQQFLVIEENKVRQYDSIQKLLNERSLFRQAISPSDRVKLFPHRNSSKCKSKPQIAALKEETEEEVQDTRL

Experiments:
[1] = target: Glycogen synthase kinase-3 alpha (Homo sapiens, UniProt P49840)
[2] = target: Cystic fibrosis transmembrane conductance regulator (Homo sapiens, UniProt P13569, F508DEL); test: Activity at human wild type CFTR expressed in F508del-CF1 cells assessed as forskolin stimulated iodide flux; assay type: cell-based
[3] = Inhibition of p34cdc2/cyclin B

IC50 [3] | SMILES | IC50 [1] | EC50 [2]
 | CCCCc1c(-c2ccc(O)cc2)[nH]c2nccnc12 [ALOISINE A] | 1500 nM | 111 nM
4 nM | CC(C)[C@H](CO)Nc1nc(Nc2cccc(Cl)c2)c2ncn(C(C)C)c2n1 [PURVALANOLA] |  | 
